{"source": "patent US10221162B2", "about": "“Triazole agonists of the APJ receptor” (priority 2015, dated 2019)", "system": "naive Sprague Dawley rat hearts", "assay": "Langendorff isolated perfused rat heart (ex vivo contractility and relaxation)", "conditions": "Langendorff apparatus, as a function of concentration"}
{"smiles": "COc1cccc(OC)c1-n1c(NS(=O)(=O)[C@@H](C)[C@H](O)c2ncc(C)cn2)nnc1-c1cncc(C)c1", "note": "[Example 371.0, (1R,2S)—N-(4-(2,6-dimethoxyphenyl)-5-(5-methylpyridin-3-yl)-4H-1,2,4-triazol-3-yl)-1-hydroxy-1-(5-methylpyrimidin-2-yl)propane-2-sulfonamide]", "values": [{"measurement": "left ventricular dP/dtmax (load independent cardiac contractility)", "value": "increases load independent cardiac contractility"}, {"measurement": "left ventricular dP/dtmin (load independent cardiac relaxation)", "value": "increases load independent cardiac relaxation"}]}
